The text below walks through data of publication PMC8837141, “Structural and Functional Differences between Homologous Bacterial Ribonucleases” (International Journal of Molecular Sciences, 2022).

Assay [1] concerns the target balifase (Bacillus licheniformis).
For assay [2], the target named is T1, binase (Bacillus pumilus) (UniProt P00649).
T1 sequence: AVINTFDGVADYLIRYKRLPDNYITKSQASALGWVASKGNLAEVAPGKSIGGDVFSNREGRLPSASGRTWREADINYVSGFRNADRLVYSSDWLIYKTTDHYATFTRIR

For the substance “barstar (from UniProt P11540 1-90) (natural protein)”, in assay [1], the IC50 of barstar for inhibition of cleavage of the G^ds RNA substrate by balifase (gel of the products; 0.7 µM enzyme, 1 µM substrate, 0.33–5.3 µM barstar) turned out to be 2100 nM and the enzyme to barstar ratio at which complete inhibition of cleavage of the G^ds RNA substrate by balifase was achieved (barstar per enzyme) was determined as 4. Moreover, in assay [2], the IC50 of barstar for inhibition of cleavage of the G^ds RNA substrate by binase (gel of the products; 0.7 µM enzyme, 1 µM substrate, 0.33–5.3 µM barstar) turned out to be 1000 nM and the enzyme to barstar ratio at which complete inhibition of cleavage of the G^ds RNA substrate by binase was achieved (barstar per enzyme) turned out to be 2.
